Measurements as given in article PMC3673938, “Two Distinct Calmodulin Binding Sites in the Third Intracellular Loop and Carboxyl Tail of Angiotensin II (AT1A) Receptor” (PLoS ONE, 2013).

Test system: AT1A receptor-CaM interaction
Experiment: BRET between AT1A receptor-eYFP and RLuc-CaM / CaM-RLuc in HEK293 cells
Format: cell-based, Human Embryonic Kidney 293 (HEK293) cells
Settings: HEK293 cells lacking RLuc-CaM or CaM-RLuc; W7 (50 mM) for 20 minutes

NCCCCCCNS(=O)(=O)c1cccc2c(Cl)cccc12 [W7, N-(6-aminohexyl)-5-chloro-1-naphthalenesulfonamide]
effect on BRET signal of RLuc (control) transfectants: not affected
